Measurements taken from patent publication US20170304288A1, “Formulations of Methionine Aminopeptidase Inhibitors for Treating Infectious Diseases” (Texas Southern University, priority 2013, published 2017).

Key:
HsMetAP1 = HsMetAP1 (Homo sapiens, UniProt P53582); assay: MetAP enzyme inhibition IC50; type: biochemical
Protocol: (§1) The concentration needed for 50% enzyme inhibition (IC50) was determined in 96-well plates at final concentrations ranging from 100 μM to 300 nM for MetAP inhibitors. The enzyme was pre-incubated with compounds for 20 minutes at room temperature followed by addition of substrate. The reaction was incubated at room temperature for 30 min and monitored at 405 nm on a spectrophotometer. The background hydrolysis was subtracted and the data was fitted to a four-parameter logistic (variable slope) equation using GraphPad Prism software.

HsMetAP2 = HsMetAP2 (Homo sapiens, UniProt P50579); assay: MetAP enzyme inhibition IC50; type: biochemical
Protocol: as §1

O=C(N/N=C/c1c(O)ccc2ccccc12)c1ccncc1 [Compound 1, 2-hydroxy-1-naphthylaldehyde isonicotinoyl hydrazone]
selectivity for MtMetAPs than HsMetAP1 (HsMetAP1): at least 50 fold | selectivity for MtMetAPs than HsMetAP2 (HsMetAP2): at least 20 fold
